{"source": "patent US20120164129", "key": {"[1]": {"biological_target": "Fibrinogen (UniProt P02671)"}, "[2]": {"biological_target": "Protein C (UniProt P04070)"}, "[3]": {"biological_target": "protease-activated receptor 1 (PAR 1) (UniProt P25116)"}}}
{"substance": "E. coli E-WE thrombin prepared by activation with ecarin only from E-WE prethrombin-2 with two ecarin sites", "values": [{"measurement": "kcat/Km, fibrinogen (FpA); E. coli E-WE Two ecarin sites Lot 1; activation: Ecarin Only", "setting": "[1]", "value": 0.00027, "unit": "µM⁻¹ s⁻¹"}, {"measurement": "kcat/Km, protein C activation (50 nM TM); E. coli E-WE Two ecarin sites Lot 1; activation: Ecarin Only", "setting": "[2]", "value": 26.6, "unit": "mM⁻¹ s⁻¹"}, {"measurement": "kcat/Km, PAR 1; E. coli E-WE Two ecarin sites Lot 1; activation: Ecarin Only", "setting": "[3]", "value": 0.0099, "unit": "µM⁻¹ s⁻¹"}]}
{"substance": "Thrombin mutant Δ146-149e expressed in BHK cells", "values": [{"measurement": "kcat/Km, fibrinogen (FpA); BHK Δ146-149e; activation: Ecarin", "setting": "[1]", "value": 0.071, "unit": "µM⁻¹ s⁻¹"}, {"measurement": "kcat/Km, protein C activation (50 nM TM); BHK Δ146-149e; activation: Ecarin", "setting": "[2]", "value": 13, "unit": "mM⁻¹ s⁻¹"}, {"measurement": "kcat/Km, PAR 1; BHK Δ146-149e; activation: Ecarin", "setting": "[3]", "value": 0.12, "unit": "µM⁻¹ s⁻¹"}]}
{"substance": "Wild type human thrombin expressed in BHK cells", "values": [{"measurement": "kcat/Km, fibrinogen (FpA); BHK WT; activation: Prothrombinase", "setting": "[1]", "value": 17, "unit": "µM⁻¹ s⁻¹"}, {"measurement": "kcat/Km, protein C activation (50 nM TM); BHK WT; activation: Prothrombinase", "setting": "[2]", "value": 220, "unit": "mM⁻¹ s⁻¹"}, {"measurement": "kcat/Km, PAR 1; BHK WT; activation: Prothrombinase", "setting": "[3]", "value": 26, "unit": "µM⁻¹ s⁻¹"}]}
{"substance": "WE thrombin (W215A/E217A) prepared from WE prethrombin-1 expressed in BHK cells", "values": [{"measurement": "kcat/Km, fibrinogen (FpA); BHK WE; activation: Prothrombinase, Ecarin", "setting": "[1]", "value": 0.0052, "unit": "µM⁻¹ s⁻¹"}, {"measurement": "kcat/Km, protein C activation (50 nM TM); BHK WE; activation: Prothrombinase, Ecarin", "setting": "[2]", "value": 4.1, "unit": "mM⁻¹ s⁻¹"}, {"measurement": "kcat/Km, PAR 1; BHK WE; activation: Prothrombinase, Ecarin", "setting": "[3]", "value": 0.017, "unit": "µM⁻¹ s⁻¹"}]}
{"substance": "Wild type human thrombin expressed in E. coli", "values": [{"measurement": "kcat/Km, fibrinogen (FpA); E. coli WT; activation: Ecarin", "setting": "[1]", "value": 9.6, "unit": "µM⁻¹ s⁻¹"}, {"measurement": "kcat/Km, protein C activation (50 nM TM); E. coli WT; activation: Ecarin", "setting": "[2]", "value": 220, "unit": "mM⁻¹ s⁻¹"}, {"measurement": "kcat/Km, PAR 1; E. coli WT; activation: Ecarin", "setting": "[3]", "value": 24, "unit": "µM⁻¹ s⁻¹"}]}
{"substance": "E. coli-derived recombinant E-WE thrombin (W215A/E217A), prepared from E-WE prethrombin-2 expressed in E. coli", "values": [{"measurement": "Catalytic activity (kcat/Km), fibrinogen; WE thrombin mutant expressed in E. coli", "setting": "[1]", "value": 0.16, "unit": "mM⁻¹ s⁻¹"}, {"measurement": "kcat/Km, fibrinogen (FpA); E. coli E-WE (Lot 1) FZ; activation: Prothrombinase + Ecarin", "setting": "[1]", "value": 0.000161, "unit": "µM⁻¹ s⁻¹"}, {"measurement": "kcat/Km, fibrinogen (FpA); E. coli E-WE (Lot 2); activation: Prothrombinase Ecarin, AC", "setting": "[1]", "value": 0.00013, "unit": "µM⁻¹ s⁻¹"}, {"measurement": "kcat/Km, fibrinogen (FpA); E. coli E-WE (Lot 3); activation: Ecarin, AC", "setting": "[1]", "value": 0.0011, "unit": "µM⁻¹ s⁻¹"}, {"measurement": "kcat/Km, fibrinogen (FpA); E. coli E-WE (Lot 4); activation: Prothrombinase, Ecarin, AC", "setting": "[1]", "value": 0.00019, "unit": "µM⁻¹ s⁻¹"}, {"measurement": "kcat/Km, fibrinogen (FpA); E. coli E-WE (Lot 5); activation: Prothrombinase + Ecarin", "setting": "[1]", "value": 0.00017, "unit": "µM⁻¹ s⁻¹"}, {"measurement": "kcat/Km, fibrinogen (FpA); E. coli E-WE (Lot 6, FZ); activation: Prothrombinase + Ecarin", "setting": "[1]", "value": 0.000184, "unit": "µM⁻¹ s⁻¹"}, {"measurement": "Catalytic activity (kcat/Km), Protein C; WE thrombin mutant expressed in E. coli", "setting": "[2]", "value": 22, "unit": "mM⁻¹ s⁻¹"}, {"measurement": "kcat/Km, protein C activation (50 nM TM); E. coli E-WE (Lot 1) FZ; activation: Prothrombinase + Ecarin", "setting": "[2]", "value": 9.26, "unit": "mM⁻¹ s⁻¹"}, {"measurement": "kcat/Km, protein C activation (50 nM TM); E. coli E-WE (Lot 2); activation: Prothrombinase Ecarin, AC", "setting": "[2]", "value": 25, "unit": "mM⁻¹ s⁻¹"}, {"measurement": "kcat/Km, protein C activation (50 nM TM); E. coli E-WE (Lot 3); activation: Ecarin, AC", "setting": "[2]", "value": 14, "unit": "mM⁻¹ s⁻¹"}, {"measurement": "kcat/Km, protein C activation (50 nM TM); E. coli E-WE (Lot 4); activation: Prothrombinase, Ecarin, AC", "setting": "[2]", "value": 16, "unit": "mM⁻¹ s⁻¹"}, {"measurement": "kcat/Km, protein C activation (50 nM TM); E. coli E-WE (Lot 5); activation: Prothrombinase + Ecarin", "setting": "[2]", "value": 3.7, "unit": "mM⁻¹ s⁻¹"}, {"measurement": "kcat/Km, protein C activation (50 nM TM); E. coli E-WE (Lot 6, FZ); activation: Prothrombinase + Ecarin", "setting": "[2]", "value": 24.6, "unit": "mM⁻¹ s⁻¹"}, {"measurement": "Catalytic activity (kcat/Km), PAR 1; WE thrombin mutant expressed in E. coli", "setting": "[3]", "value": 10, "unit": "mM⁻¹ s⁻¹"}, {"measurement": "kcat/Km, PAR 1; E. coli E-WE (Lot 1) FZ; activation: Prothrombinase + Ecarin", "setting": "[3]", "value": 0.01, "unit": "µM⁻¹ s⁻¹"}, {"measurement": "kcat/Km, PAR 1; E. coli E-WE (Lot 2); activation: Prothrombinase Ecarin, AC", "setting": "[3]", "value": 0.004, "unit": "µM⁻¹ s⁻¹"}, {"measurement": "kcat/Km, PAR 1; E. coli E-WE (Lot 3); activation: Ecarin, AC", "setting": "[3]", "value": 0.096, "unit": "µM⁻¹ s⁻¹"}, {"measurement": "kcat/Km, PAR 1; E. coli E-WE (Lot 4); activation: Prothrombinase, Ecarin, AC", "setting": "[3]", "value": 0.032, "unit": "µM⁻¹ s⁻¹"}, {"measurement": "kcat/Km, PAR 1; E. coli E-WE (Lot 5); activation: Prothrombinase + Ecarin", "setting": "[3]", "value": 0.0094, "unit": "µM⁻¹ s⁻¹"}, {"measurement": "kcat/Km, PAR 1; E. coli E-WE (Lot 6, FZ); activation: Prothrombinase + Ecarin", "setting": "[3]", "value": 0.0085, "unit": "µM⁻¹ s⁻¹"}]}
{"substance": "Thrombin mutant Δ146-149e expressed in E. coli", "values": [{"measurement": "kcat/Km, fibrinogen (FpA); E. coli Δ146-149e; activation: Prothrombinase, Ecarin", "setting": "[1]", "value": 0.11, "unit": "µM⁻¹ s⁻¹"}, {"measurement": "kcat/Km, protein C activation (50 nM TM); E. coli Δ146-149e; activation: Prothrombinase, Ecarin", "setting": "[2]", "value": 35, "unit": "mM⁻¹ s⁻¹"}, {"measurement": "kcat/Km, PAR 1; E. coli Δ146-149e; activation: Prothrombinase, Ecarin", "setting": "[3]", "value": 0.13, "unit": "µM⁻¹ s⁻¹"}]}
